What all share (assay type): functional, organism-based
For experiment [1], the system named is Mus musculus. Briefly: Antidiabetic activity in ob/ob mouse assessed as reduction in polyphagia by measuring increase in food consumption at 10 mg/kg, po administered once daily for 30 days and measured daily. The note with it: time 30.0 day.
In experiment [2] the test system is Mus musculus. Description: Hepatoprotective activity in ob/ob mouse assessed as reduction in plasma alanine aminotransferase at 10 mg/kg, po administered once daily for 30 days. Particulars: time 30.0 day.
In experiment [3] the test system is Mus musculus. Briefly: Hepatoprotective activity in ob/ob mouse assessed as reduction in plasma aspartate transaminase at 10 mg/kg, po administered once daily for 30 days. The note with it: time 30.0 day.
In experiment [4] the test system is Mus musculus. Briefly: Improvement in glucose tolerance in high fat diet-fed C57BL/6 diabetic mouse model assessed as glucose lowering effect at 10 mg/kg, po administered once daily for 7 days and on day 7 treated at 30 mins prior to glucose challenge and measured up to 120 mins by blood glucose test. Particulars: time 7.0 day.

Calls of active or inactive are those of the source. No cut-off for these calls is given here.

Turning to `CN(CCOc1ccc(CC2SC(=O)NC2=O)cc1)c1ccccn1` (centres undefined) [ROSIGLITAZONE], the result in the experiment on Mus musculus [1] was inactive. Further, the outcome in the experiment on Mus musculus [2], in the experiment with Mus musculus [3] and in the experiment on Mus musculus [4] was Active.

Values taken from ChEMBL document CHEMBL4831519, “Discovery of the first-in-class dual PPARδ/γ partial agonist for the treatment of metabolic syndrome” (Eur J Med Chem, 2021).
